According to patent publication US8920559B2, “Screening for solid forms by ultrasound crystallization and cocrystallization using ultrasound” (Aptuit (West Lafayette), LLC, priority 2004, dated 2014):

Conditions: cocrystal compared with crystals of fluoxetine HCl

With fluoxetine HCl:succinic acid the dissolution rate was “faster dissolution rate”.
